# Antibody variant affinities, Ab-14 light chain, assay B

Binding partner: SARS-CoV-2 spike HR2 peptide, sequence PDVDLGDISGINAS.

Ab-14 is the parent antibody, in scFv form: VH, then a 15-residue (Gly4Ser)3 linker, then VL. The heavy chain is unchanged in all variants.
VH: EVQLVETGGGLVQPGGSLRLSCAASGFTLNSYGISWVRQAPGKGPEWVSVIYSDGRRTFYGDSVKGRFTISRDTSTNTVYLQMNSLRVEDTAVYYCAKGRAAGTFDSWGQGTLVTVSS
VL: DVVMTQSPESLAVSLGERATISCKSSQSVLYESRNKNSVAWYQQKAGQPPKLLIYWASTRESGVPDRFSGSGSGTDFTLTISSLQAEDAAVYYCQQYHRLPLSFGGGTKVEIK

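The parent was found by panning a naive human phage display library on the peptide. These sequences belong to a second round, designed from the earlier measurements on random variants of the parent. Group labels follow the data file (Ctrl: baseline library sampled from a position-specific scoring matrix, with some repeated check sequences; En: ensemble of fine-tuned language models; GP: Gaussian process model; HC: hill climbing; Gen: genetic algorithm; Gibbs: Gibbs sampling; a sequence that several methods proposed may carry one label only). The scFvs were displayed on barcoded MATa yeast, the peptide on MATalpha yeast. Mating (16 h, 30 °C) was followed by selection of diploids and sequencing of their barcodes. Read counts were normalised to the haploid input and turned into Kd by a linear fit to BCL2-family pairs of known affinity, for each replicate. The assay was run in six technical replicates.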

Variants are written as CDR1, CDR2 and CDR3 of the light chain (limits as in the source). Parent: KSSQSVLYESRNKNSVA, WASTRES, QQYHRLPLS. The Kd shown is the geometric mean over detected replicates; a lower Kd is a better binder. Values of this round are not directly comparable with the first-round values of the same sequences.

{"CDR-L1": "KIGQQVTYESTVKNAIA", "CDR-L2": "QMTTREE", "CDR-L3": "QQYHRLPLS", "group": "En_HC", "Kd": "2.0 nM", "seen in": "6 of 6"}
{"CDR-L1": "KLSMEHDYESRNKNSVA", "CDR-L2": "QASQREE", "CDR-L3": "QQYHRLPLS", "group": "GP_Gibbs", "Kd": "410 pM", "seen in": "6 of 6"}
{"CDR-L1": "KCQISVEQESRQKNSVA", "CDR-L2": "HASTRES", "CDR-L3": "QQYHRLPLS", "group": "GP_Gibbs", "Kd": "2.0 nM", "seen in": "6 of 6"}
{"CDR-L1": "KSSQSVLYESDNKNSVA", "CDR-L2": "EASTRED", "CDR-L3": "QQYHRLVLS", "group": "Ctrl", "Kd": "6.3 nM", "seen in": "6 of 6"}
{"CDR-L1": "KSSQSILYQSRNKNSVA", "CDR-L2": "WASTRVS", "CDR-L3": "QQYHRLPLE", "group": "Ctrl", "Kd": "250 nM", "seen in": "5 of 6"}
{"CDR-L1": "KSSQSVLYESRNKNSVA", "CDR-L2": "QASTRES", "CDR-L3": "QQYHRLPNS", "group": "Ctrl", "Kd": "12 nM", "seen in": "1 of 6"}
{"CDR-L1": "KFMQSMGYESRNQNSVA", "CDR-L2": "DASTRMS", "CDR-L3": "QQYHRLPLS", "group": "GP_Gibbs", "Kd": "220 pM", "seen in": "6 of 6"}
{"CDR-L1": "KLEQSWLYESRNKNSVA", "CDR-L2": "NASLRES", "CDR-L3": "QQYHRLPLS", "group": "GP_Gen", "Kd": "1.4 nM", "seen in": "6 of 6"}
{"CDR-L1": "KSLQSVLYESRNKNSVA", "CDR-L2": "QASTRED", "CDR-L3": "QQYHQLPLS", "group": "GP_HC", "Kd": "1.7 nM", "seen in": "6 of 6"}
{"CDR-L1": "KVSEFMKGLMMRTDSIA", "CDR-L2": "DNVTRQN", "CDR-L3": "QQYDRLPLS", "group": "En_Gen", "Kd": "140 nM", "seen in": "6 of 6"}
{"CDR-L1": "KSSQSFLYESTNKNSVA", "CDR-L2": "WGSTREK", "CDR-L3": "QQYHRLPLS", "group": "Ctrl", "Kd": "95 nM", "seen in": "5 of 6"}
{"CDR-L1": "HLELEYMQMMKDHNSIA", "CDR-L2": "DTESKTR", "CDR-L3": "QQYFRLPIS", "group": "En_Gibbs", "Kd": "4.8 nM", "seen in": "6 of 6"}
{"CDR-L1": "KLEFLHLYESRNKNSVA", "CDR-L2": "QASTREM", "CDR-L3": "QQYHRLPLS", "group": "GP_Gibbs", "Kd": "2.1 nM", "seen in": "6 of 6"}
{"CDR-L1": "KFSQSVLYESRNKNAVA", "CDR-L2": "NASTRES", "CDR-L3": "QQYHRLPLS", "group": "GP_Gen", "Kd": "1.1 nM", "seen in": "6 of 6"}
{"CDR-L1": "KISQMARVGSTHSNSIA", "CDR-L2": "EVVTRMK", "CDR-L3": "QQYHRLPLA", "group": "En_Gen", "Kd": "15 nM", "seen in": "6 of 6"}
{"CDR-L1": "KSSQSVLGEMRNKNSVA", "CDR-L2": "AASTRES", "CDR-L3": "QQYHRLPLS", "group": "Ctrl", "Kd": "8.3 nM", "seen in": "6 of 6"}
{"CDR-L1": "TISQMWFLESKNKNNVA", "CDR-L2": "EENTRED", "CDR-L3": "QSYFRLPLS", "group": "En_HC", "Kd": "4.5 nM", "seen in": "6 of 6"}
{"CDR-L1": "KSSQSVLYTSRNKNSVA", "CDR-L2": "NASTRES", "CDR-L3": "QQYHTLPLS", "group": "Ctrl", "Kd": "44 nM", "seen in": "6 of 6"}
{"CDR-L1": "KSSQSVLYDSRNVNSVA", "CDR-L2": "WASTRES", "CDR-L3": "QQYHRLPLS", "group": "Ctrl", "Kd": "21 nM", "seen in": "6 of 6"}
{"CDR-L1": "EMLYMDNSVGLQKDSIA", "CDR-L2": "EAEQVME", "CDR-L3": "QQYFRLPLV", "group": "En_Gibbs", "Kd": "8.2 nM", "seen in": "6 of 6"}
{"CDR-L1": "KSSQSVLYESRNKNSVA", "CDR-L2": "KASTRES", "CDR-L3": "QQYGRLPLS", "group": "Ctrl", "Kd": "5.5 nM", "seen in": "6 of 6"}
{"CDR-L1": "MVNQHDEGFKGHKDNIA", "CDR-L2": "NAATKEG", "CDR-L3": "QHYGRLPLS", "group": "En_Gibbs", "Kd": "4.4 nM", "seen in": "6 of 6"}
{"CDR-L1": "KSSQVYLYESRNKNSVA", "CDR-L2": "NASTRES", "CDR-L3": "QQYHRLPLS", "group": "GP_HC", "Kd": "790 pM", "seen in": "6 of 6"}
{"CDR-L1": "SLYENYANGSQHTNSVA", "CDR-L2": "DANQMMR", "CDR-L3": "QHYNRLPLA", "group": "En_Gibbs", "Kd": "14 nM", "seen in": "6 of 6"}
{"CDR-L1": "ILSQSVLMGSHLKNSVA", "CDR-L2": "QAETRFS", "CDR-L3": "QQYHRLPLS", "group": "En_HC", "Kd": "3.7 nM", "seen in": "6 of 6"}

The authors averaged sequences with at least three values out of six and counted those with two or fewer as poor binders. Three control strains display no target. For all light chain designs, 4% of the pairings with them gave a signal, with a median of 430 nM and one signal in twenty below 38 nM, so weak values seen in few replicates may be background. The parent sequence was in this pool as ten entries: three were never detected, three once, and four in most replicates, with averages from 2.2 nM to 240 nM.

Reference: Li et al. 2023, doi:10.1038/s41467-023-39022-2. File: FLAb, binding data.